# Measurements from PubChem BioAssay (NCATS).
# Protein sequences, listed by entry. Tags and fused reporters are not part of them. Lines headed by an entry give the natural chain unless they say otherwise; changes in a name come on top.
# UniProt P19793: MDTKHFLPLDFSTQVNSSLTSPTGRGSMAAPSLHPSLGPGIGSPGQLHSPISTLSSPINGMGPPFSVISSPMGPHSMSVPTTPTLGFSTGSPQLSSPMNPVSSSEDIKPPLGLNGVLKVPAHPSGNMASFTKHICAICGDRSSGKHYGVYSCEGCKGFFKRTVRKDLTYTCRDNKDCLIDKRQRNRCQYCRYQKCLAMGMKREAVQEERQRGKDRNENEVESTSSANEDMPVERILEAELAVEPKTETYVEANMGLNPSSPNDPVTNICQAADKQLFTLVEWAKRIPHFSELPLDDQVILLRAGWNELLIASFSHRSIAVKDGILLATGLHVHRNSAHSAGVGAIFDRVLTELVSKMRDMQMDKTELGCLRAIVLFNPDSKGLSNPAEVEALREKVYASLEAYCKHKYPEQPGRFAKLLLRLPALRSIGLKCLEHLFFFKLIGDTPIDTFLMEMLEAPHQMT
# UniProt Q12809: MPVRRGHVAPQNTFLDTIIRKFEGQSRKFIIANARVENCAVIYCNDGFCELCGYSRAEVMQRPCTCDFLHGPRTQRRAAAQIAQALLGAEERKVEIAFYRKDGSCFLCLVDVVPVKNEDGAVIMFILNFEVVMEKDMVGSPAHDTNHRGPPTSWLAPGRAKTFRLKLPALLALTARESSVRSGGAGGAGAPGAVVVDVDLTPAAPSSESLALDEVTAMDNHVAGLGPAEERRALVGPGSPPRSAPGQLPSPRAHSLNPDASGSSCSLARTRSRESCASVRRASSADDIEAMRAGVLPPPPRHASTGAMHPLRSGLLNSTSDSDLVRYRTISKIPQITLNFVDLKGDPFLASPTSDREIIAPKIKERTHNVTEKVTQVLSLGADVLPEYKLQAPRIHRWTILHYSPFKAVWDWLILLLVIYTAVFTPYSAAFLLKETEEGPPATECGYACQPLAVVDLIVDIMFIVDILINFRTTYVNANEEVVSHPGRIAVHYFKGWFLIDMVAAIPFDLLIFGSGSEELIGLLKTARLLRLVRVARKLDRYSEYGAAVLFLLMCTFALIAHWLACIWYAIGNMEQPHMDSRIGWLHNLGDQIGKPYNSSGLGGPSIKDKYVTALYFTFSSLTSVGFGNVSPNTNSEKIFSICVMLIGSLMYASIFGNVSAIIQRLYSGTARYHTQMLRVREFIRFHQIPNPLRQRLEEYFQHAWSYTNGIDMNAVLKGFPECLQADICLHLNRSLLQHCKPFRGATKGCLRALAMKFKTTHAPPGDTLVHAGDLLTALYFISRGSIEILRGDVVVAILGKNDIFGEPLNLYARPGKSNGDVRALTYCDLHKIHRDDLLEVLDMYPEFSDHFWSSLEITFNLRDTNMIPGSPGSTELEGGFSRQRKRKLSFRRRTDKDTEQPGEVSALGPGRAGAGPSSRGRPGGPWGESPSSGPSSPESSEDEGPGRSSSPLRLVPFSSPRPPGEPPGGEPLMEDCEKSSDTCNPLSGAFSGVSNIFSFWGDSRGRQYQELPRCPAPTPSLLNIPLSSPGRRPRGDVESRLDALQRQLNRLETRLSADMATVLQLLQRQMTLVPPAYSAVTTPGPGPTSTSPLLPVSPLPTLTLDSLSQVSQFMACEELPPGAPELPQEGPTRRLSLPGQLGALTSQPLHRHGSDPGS
# UniProt P01375, whole entry, looked up: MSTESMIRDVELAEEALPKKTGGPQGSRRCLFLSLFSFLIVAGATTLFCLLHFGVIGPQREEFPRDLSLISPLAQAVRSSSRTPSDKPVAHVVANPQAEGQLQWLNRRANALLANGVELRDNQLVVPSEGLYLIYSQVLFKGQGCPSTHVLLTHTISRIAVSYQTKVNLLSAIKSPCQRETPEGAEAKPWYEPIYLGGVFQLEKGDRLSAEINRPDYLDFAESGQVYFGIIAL
# UniProt Q07869: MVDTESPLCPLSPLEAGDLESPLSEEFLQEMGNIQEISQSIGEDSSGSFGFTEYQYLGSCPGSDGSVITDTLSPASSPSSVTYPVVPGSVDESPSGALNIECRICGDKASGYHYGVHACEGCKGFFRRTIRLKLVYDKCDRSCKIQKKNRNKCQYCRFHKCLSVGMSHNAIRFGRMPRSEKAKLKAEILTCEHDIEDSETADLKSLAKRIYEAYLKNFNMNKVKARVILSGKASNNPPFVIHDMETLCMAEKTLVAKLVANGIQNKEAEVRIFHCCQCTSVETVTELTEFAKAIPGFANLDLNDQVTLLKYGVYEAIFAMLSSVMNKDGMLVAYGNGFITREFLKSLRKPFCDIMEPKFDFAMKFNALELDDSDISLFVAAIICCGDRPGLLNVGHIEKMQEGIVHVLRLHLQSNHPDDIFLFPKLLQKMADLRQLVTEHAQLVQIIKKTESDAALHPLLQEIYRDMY
# UniProt P51449: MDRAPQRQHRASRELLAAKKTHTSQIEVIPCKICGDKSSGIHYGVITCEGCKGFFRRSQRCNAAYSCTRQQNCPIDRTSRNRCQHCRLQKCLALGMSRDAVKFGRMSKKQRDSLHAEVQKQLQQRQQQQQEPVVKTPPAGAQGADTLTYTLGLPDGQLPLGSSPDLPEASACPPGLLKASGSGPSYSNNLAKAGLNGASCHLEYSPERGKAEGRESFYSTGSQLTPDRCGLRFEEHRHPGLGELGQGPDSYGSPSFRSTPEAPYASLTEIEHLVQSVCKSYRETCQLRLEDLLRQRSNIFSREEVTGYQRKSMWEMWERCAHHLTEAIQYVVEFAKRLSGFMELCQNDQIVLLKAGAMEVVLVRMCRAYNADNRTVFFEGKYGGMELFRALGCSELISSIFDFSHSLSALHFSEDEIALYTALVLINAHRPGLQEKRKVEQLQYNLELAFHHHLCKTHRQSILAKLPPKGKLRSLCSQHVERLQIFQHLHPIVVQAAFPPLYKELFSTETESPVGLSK
# UniProt Q9R1A7: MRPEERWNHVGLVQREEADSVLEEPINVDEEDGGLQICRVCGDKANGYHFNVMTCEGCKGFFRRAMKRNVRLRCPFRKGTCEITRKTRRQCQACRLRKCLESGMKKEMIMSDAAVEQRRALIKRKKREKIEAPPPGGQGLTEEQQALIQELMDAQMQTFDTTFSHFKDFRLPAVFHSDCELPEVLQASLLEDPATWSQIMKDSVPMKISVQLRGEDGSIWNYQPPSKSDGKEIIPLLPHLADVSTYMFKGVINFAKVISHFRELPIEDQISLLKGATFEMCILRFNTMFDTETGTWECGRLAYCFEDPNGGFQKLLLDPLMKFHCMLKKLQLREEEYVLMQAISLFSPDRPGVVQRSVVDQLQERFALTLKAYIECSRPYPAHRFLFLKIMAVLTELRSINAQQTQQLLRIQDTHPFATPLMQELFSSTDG
# Only a part is listed here, and it is no random draw. Inconclusive results are not listed. For part of these data: Measured potencies and affinities stand elsewhere. Activity calls are given as the source filed them. Unless noted, the call rests on the fitted dose curve; in most records, active means well fitted curve in the direction sought with a large enough effect; inconclusive means small, poorly fitted or top-dose-only effect, or another doubt; inactive means no such curve, though single readings can be large; an effect the other way counts as inactive or inconclusive.
# How the values were obtained:
# [1] = Cell Viability - LYMP2-005 (AID 967); further: potency means the concentration at half of the fitted maximal effect
# Method in brief: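 LYMP2-005 human lymphoblastoid cells (2500/well) were treated with compounds for 24 h at 37 C. Intracellular ATP was then measured by CellTiter-Glo luminescence after 30 min at room temperature. AC50 values came from Hill-equation fits of qHTS concentration-response data.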
# [2] = Cell Viability - LYMP1-002 - Assay at 24 hr (AID 993); conditions: LYMP1-002 lymphoblastoid cells viability; at 92.2 µM (top of the series); further: on the % scale 0 is the no-effect control and ±100 the full control effect
# Method in brief: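 Viability was judged from intracellular ATP using a luciferase read-out, following a 24-hour compound incubation at 37 C of lymphoblastoid cells seeded at 2500 per well. Concentration-response data were fitted to the Hill equation for AC50.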
# [3] = qHTS Assay for Identification of Small Molecule Inducers of Hypoxia Response (AID 2120; active means well fitted curve in the direction sought with a large enough effect in the signal ratio, with a control signal flat, not every such curve was filed as active; the % refers to the signal ratio; further: 0% is about no effect); conditions: hypoxia response reporter cells, beta-lactamase ratio readout; at 104 µM (top of the series)
# Method in brief: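 HRE-bla ME-180, 2500 cells/well, 0.5% dialyzed FBS medium; cpd titration, 17 h 37 degrees C; CCF4 2.5 h RT; Ex 405, Em 460/530 ratio -> %Activity, AC50.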
# [4] = target: Glucocorticoid receptor (Homo sapiens) (UniProt P04150); experiment: qHTS assay for small molecule agonists of glucocorticoid receptor signaling (AID 588532; active means well fitted curve in the direction sought with a large enough effect in the signal ratio, with a control signal flat; the % refers to the signal ratio;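 further: 100% = dexamethasone at 0.1 µM and 0% = DMSO only wells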); conditions: HeLa MMTV-bla, beta-lactamase ratio, agonist, 18 h; active compounds read high
# [5] = target: Vitamin D3 receptor (Homo sapiens) (UniProt P11473); experiment: qHTS assay for small molecule antagonists of vitamin D receptor signaling (AID 588541; calls by dose curve;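 further: receptor activated by calcitriol during compound treatment; on the % scale 0 is the no-effect control and ±100 the full control effect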); conditions: HEK293T VDR-UAS-bla, beta-lactamase ratio, antagonist mode; at 76.7 µM (top of the series)
# Method in brief: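 Antagonist-mode beta-lactamase reporter assay: HEK293T VDR-UAS-bla cells were exposed to titrated compound alongside 1-alpha,25-dihydroxyvitamin D3 at 3 nM final for 16 h. Values were normalized to the 50 nM agonist control and DMSO basal, with IC50 and efficacy from Hill equation fits.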
# [6] = target: Vitamin D3 receptor (Homo sapiens) (UniProt P11473); experiment: qHTS assay for small molecule agonists of vitamin D receptor signaling (AID 588543; calls by dose curve;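 further: 0% = DMSO basal and 100% = reference agonist control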); conditions: HEK293T VDR-UAS-bla, beta-lactamase ratio, 16 h; at 76.8 µM (top of the series)
# Method in brief: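 Agonist-mode beta-lactamase reporter: HEK293T VDR-UAS-bla cells in charcoal-stripped 2% FBS, compound series 16 h 37 C, CCF4 2 h RT. EC50 from Hill fit, scaled against DMSO and 50 nM calcitriol control.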
# [7] = target: Retinoic acid receptor RXR-alpha (Homo sapiens) (UniProt P19793); experiment: qHTS assay for small molecule agonists of retinoid X receptor alpha signaling (AID 588544; calls by dose curve;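 further: 0% = DMSO basal wells and 100% = reference agonist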); conditions: HEK293T RXRa-UAS-bla, beta-lactamase reporter, 18 h; at 76.7 µM (top of the series)
# [8] = target: Retinoic acid receptor RXR-alpha (Homo sapiens) (UniProt P19793); experiment: qHTS assay for small molecule antagonists of retinoid X receptor alpha signaling (AID 588546; active means well fitted inhibition curve with a large enough effect in the signal ratio, with a control signal flat, not every such curve was filed as active; the % refers to the signal ratio;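 further: cells stimulated with 9-cis-retinoic acid as agonist; on the % scale 0 is the no-effect control and ±100 the full control effect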); conditions: HEK293T RXRa-UAS-bla, beta-lactamase ratio, antagonist mode
# Method in brief: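 Beta-lactamase reporter inhibition, read as CCF4 fluorescence ratio (ex 405, em 460/530 nm) after 2 h at RT. HEK293T UAS-bla cells, 2500/well, were stimulated with 9-cis-RA at 500 or 100 nM final alongside test compound for 18 h at 37 C.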
# [9] = target: Voltage-gated inwardly rectifying potassium channel KCNH2 (Homo sapiens) (UniProt Q12809); experiment: qHTS Assay for Small Molecule Inhibitors of the Human hERG Channel Activity (AID 588834); conditions: U2OS BacMam hERG, FluxOR thallium flux fluorescence; at 46.1 µM (top of the series) unless noted;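 further: U2OS cells transduced with hERG by BacMam; top concentration of the series differs between compounds; on the % scale 0 is the no-effect control and ±100 the full control effect; lower thallium flux fluorescence means stronger hERG block; nearly all actives have a fitted effect of over 50% in size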
# [10] = qHTS assay for small molecule activators of the p53 signaling pathway (AID 651743; active means well fitted activation curve with a large enough effect in the signal ratio, not every such curve was filed as active; the % refers to the signal ratio; further: potency means the concentration at half of the fitted maximal effect); conditions: HCT-116 p53RE-bla, beta-lactamase FRET ratio, 16 h; activation: active compounds read high
# [11] = target: Tumor necrosis factor (Homo sapiens) (UniProt P01375); experiment: qHTS assay to identify small molecules that stimulate Tumor Necrosis Factor-alpha (TNF-alpha) secretion (AID 651757; active means well fitted curve in the direction sought with a large enough effect in the signal ratio; the % refers to the signal ratio; further: 0% is about no effect); conditions: Human cells, HTRF 665/615 ratio; at 92.2 µM (top of the series)
# Method in brief: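 Using 3000 THP-1 cells per well, compounds and controls were applied for 17 hrs at 37 C. Detection followed with two labeled anti-TNF-alpha antibodies (cryptate donor, XL665 acceptor) for 3 hr at room temperature, measured by TR-FRET.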
# [12] = qHTS assay for environmental chemicals that activate the Aryl hydrocarbon Receptor (AhR) signaling pathway (AID 651777); conditions: 1A2-DRE human hepatoma cells, luciferase, 24 h; active compounds read high; further: % of control where 0% means no effect; nearly all actives have a fitted effect of over 15% in size
# Method in brief: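 Concentration–response screening used 1,200 1A2-DRE cells per well, 24 hr compound exposure (37 C, 5% CO2), and One-Glo luminescence as the AhR-driven CYP1A2 reporter signal.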
# [13] = target: Peroxisome proliferator-activated receptor alpha (Homo sapiens) (UniProt Q07869); experiment: qHTS assay for small molecule agonists of the peroxisome proliferator-activated receptor alpha (PPARalpha) signaling pathway (AID 651778); conditions: PathHunter PPARalpha complementation, chemiluminescence, 6 h; active compounds read high; further: % of control where 0% means no effect
# [14] = target: Nuclear receptor ROR-gamma (Homo sapiens) (UniProt P51449); experiment: qHTS assay for small molecule antagonists of the retinoid-related orphan receptor gamma (ROR-gamma) signaling pathway (AID 651802); further: potency means the concentration at half of the fitted maximal effect; nearly all actives have a fitted effect of over 60% in size
# [15] = qHTS assay for small molecule agonists of the antioxidant response element (ARE) signaling pathway measured by Nrf2-dependant transcriptional activity (AID 720636; active means well fitted curve in the direction sought with a large enough effect in the repeat runs; an effect the other way counts as inactive or inconclusive;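 further: HepG2 cells with an ARE-driven luciferase reporter; % of control where 0% means no effect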); conditions: ARE-luc HepG2, Nrf2 luciferase reporter, 16 h; at 92.4 µM (top of the series)
# [16] = qHTS assay for small molecule agonists of the antioxidant response element (ARE) signaling pathway measured by Nrf2-dependant transcriptional activity - cell viability counter screen (AID 720653; active means well fitted curve in the direction sought with a large enough effect in the repeat runs; an effect the other way counts as inactive or inconclusive; further: on the % scale 0 is the no-effect control and ±100 the full control effect); conditions: ARE-bla HepG2 viability, CellTiter-Glo ATP luminescence, 16 h; active compounds read low
# Method in brief: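 Cytotoxicity counter screen: intracellular ATP quantified by CellTiter-Glo luminescence in the same ARE-bla HepG2 plates, after 16 h compound exposure and a 2 h beta-lactamase substrate step.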
# [17] = target: Nuclear receptor subfamily 1 group I member 2 (Rattus norvegicus) (UniProt Q9R1A7); experiment: qHTS assay for small molecule activators of the rat pregnane X receptor (rPXR) signaling pathway (AID 651751; call rule not given here; further: 0% is about no effect); conditions: rPXR reporter cells, luciferase (One-Glo), 24 h
# [18] = qHTS assay for small molecule activators of the human pregnane X receptor (PXR) signaling pathway (AID 720659; call rule not given here; further: 0% is about no effect); conditions: DPX-2 HepG2 CYP3A4-luciferase, 24 h; at 92.3 µM (top of the series)
smiles,measurement,setting,value
CN(N=O)C(=N)N[N+](=O)[O-],Potency,[1],active: 39.8 µM
same,"activity change, negative = cytotoxicity",[2],inactive: -28.5%
same,activation,[3],inactive: 4.53%
same,activation,[4],inactive: -19.5%
same,"activity change, negative = inhibition",[5],inactive: -3.95%
same,activation,[6],inactive: 4.69%
same,activation,[7],inactive: -13.3%
same,max response,[8],inactive: 15.4%
same,"activity change, negative = inhibition",[9],inactive: 13.6% [at 92.2 µM]
same,Potency,[10],active: 14.1 µM
same,activation (TNF-alpha secretion),[11],inactive: 0.0265%
same,activation,[12],inactive: 0.292%
same,max response,[13],inactive: -3.85%
same,Potency,[14],active: 37.6 µM
same,activation,[15],inactive: -1.02%
same,max response,[16],inactive: -23.9%
same,max response,[17],inactive: 0.388%
same,activation,[18],inactive: -11.7%
